Results taken from paper PMC7872319, “Probing Biomolecular Interactions by a Pattern-Forming Peptide–Conjugate Sensor” (Bioconjugate Chemistry, 2020).

Test system: MinD
Conditions: 1 μM MinD, 500 nM MinE(13-31)-biotin, 90 nM divalent streptavidin

SMILES: O=C(O)CCCC[C@@H]1SC[C@@H]2NC(=O)N[C@@H]21 [free biotin, biotin]
- free biotin concentration altering pattern phenotype: < 10 nM
